Measurements from patent publication US8901087B2, “Selective glycosidase inhibitors and uses thereof” (priority 2010, dated 2014).

Protein sequences, listed by entry. Tags and fused reporters are not part of them. Lines headed by an entry give the natural chain unless they say otherwise; changes in a name come on top.
UniProt O60502: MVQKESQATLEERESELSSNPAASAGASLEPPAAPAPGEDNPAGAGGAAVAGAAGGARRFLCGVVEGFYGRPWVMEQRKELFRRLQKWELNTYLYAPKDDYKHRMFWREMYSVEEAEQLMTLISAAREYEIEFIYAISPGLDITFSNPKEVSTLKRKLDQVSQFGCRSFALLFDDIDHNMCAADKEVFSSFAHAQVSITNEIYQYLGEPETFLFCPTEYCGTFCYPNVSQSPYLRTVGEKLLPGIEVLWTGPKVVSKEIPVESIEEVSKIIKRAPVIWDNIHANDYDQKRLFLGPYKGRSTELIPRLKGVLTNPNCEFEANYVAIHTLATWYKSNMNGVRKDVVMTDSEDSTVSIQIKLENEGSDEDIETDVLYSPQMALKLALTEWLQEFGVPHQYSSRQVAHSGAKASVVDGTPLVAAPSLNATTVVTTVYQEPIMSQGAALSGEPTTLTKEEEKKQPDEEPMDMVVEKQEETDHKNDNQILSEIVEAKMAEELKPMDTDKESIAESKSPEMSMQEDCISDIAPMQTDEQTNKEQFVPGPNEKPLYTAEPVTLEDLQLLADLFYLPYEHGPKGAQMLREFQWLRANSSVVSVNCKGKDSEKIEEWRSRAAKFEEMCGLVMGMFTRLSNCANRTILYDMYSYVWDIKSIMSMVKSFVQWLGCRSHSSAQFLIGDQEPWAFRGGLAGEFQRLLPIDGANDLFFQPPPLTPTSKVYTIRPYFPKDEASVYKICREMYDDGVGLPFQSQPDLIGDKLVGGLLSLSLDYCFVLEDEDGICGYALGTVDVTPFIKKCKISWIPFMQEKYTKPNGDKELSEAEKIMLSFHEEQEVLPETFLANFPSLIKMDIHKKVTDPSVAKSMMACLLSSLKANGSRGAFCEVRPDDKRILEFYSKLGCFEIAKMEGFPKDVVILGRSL

Molecular target: human O-GlcNAcase (Homo sapiens (Human), UniProt O60502)
Test: Fluorescence-based assay for determination of KI values for inhibition of O-GlcNAcase activity
Type: biochemical
Description: Assay for Determination of KI Values for Inhibition of O-GlcNAcase Activity
Experimental Procedure for Kinetic Analyses
Enzymatic reactions are carried out in a reaction containing 50 mM NaH2PO4, 100 mM NaCl and 0.1% BSA (pH 7.0) using 2 mM 4-Methylumbelliferyl N-acetyl-β-D-glucosaminide dihydrate (Sigma M2133) dissolved in ddH2O, as a substrate. The amount of purified human O-GlcNAcase enzyme used in the reaction is 0.7 nM. Test compound of varying concentrations is added to the enzyme prior to initiation of the reaction. The reaction is performed at room temperature in a 96-well plate and is initiated with the addition of substrate. […] The slope of product production is determined for each concentration of compound tested and plotted, using standard curve fitting algorithms for sigmoidal dose response curves. The values for a four parameter logistic curve fit of the data are determined.

`C=CC[C@H](O)[C@H]1O[C@@H]2SC(NCC)=N[C@@H]2[C@@H](O)[C@@H]1O` (single isomer, unassigned) [Example 40] was tested, and the Ki was 7.95 nM.
